In ChEMBL document CHEMBL2010707, “In silico discovery and biophysical evaluation of novel 5-(2-hydroxybenzylidene) rhodanine inhibitors of DNA gyrase B” (Bioorg Med Chem, 2012):

System: Staphylococcus aureus
Details: ATCC 29213

GENTAMICIN
MIC: 0.5 µg/mL
